The target of this test is Beta-1 adrenergic receptor (Homo sapiens, UniProt P08588).

Amino acid sequences for entries named in this document (tags omitted).
UniProt P08588, whole entry: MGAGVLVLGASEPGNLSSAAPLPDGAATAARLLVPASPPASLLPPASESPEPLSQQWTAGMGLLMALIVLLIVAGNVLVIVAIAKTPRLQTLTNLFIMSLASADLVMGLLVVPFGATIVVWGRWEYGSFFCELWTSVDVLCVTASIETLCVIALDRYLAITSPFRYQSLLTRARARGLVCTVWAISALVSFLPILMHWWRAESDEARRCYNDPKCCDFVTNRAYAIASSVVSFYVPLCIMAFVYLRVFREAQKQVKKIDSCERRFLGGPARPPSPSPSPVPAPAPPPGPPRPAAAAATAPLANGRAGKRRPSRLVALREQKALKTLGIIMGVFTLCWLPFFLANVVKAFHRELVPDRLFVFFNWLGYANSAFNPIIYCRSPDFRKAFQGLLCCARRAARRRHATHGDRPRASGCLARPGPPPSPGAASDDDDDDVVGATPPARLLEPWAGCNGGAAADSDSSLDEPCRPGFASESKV

In turn, `CNC[C@H](O)c1ccc(O)c(O)c1` [EPINEPHRINE] returned an EC50 of 290 nM.

One may read the EC50 as the concentration that produces a half-maximal response. A high value points to weaker potency.

The values above are taken from ChEMBL document CHEMBL4414622, “Synthesis, Purification, and Selective β2-AR Agonist and Bronchodilatory Effects of Catecholic Tetrahydroisoquinolines from Portulaca oleracea” (J Nat Prod, 2019).
